Measurements from US10766873B2, “Zuclopenthixol hydrochloride derivatives and Ebselen derivatives as ErbB2 inhibitors” (Centre National de la Recherche Scientifique (CNRS), priority 2016, dated 2020).

Columns and labels:
MDA-MB-231 = experiment: MTT cell proliferation, MDA-MB-231; conditions: tested form: HCl
Protocol: (§1) We then analyzed the ability of ZU and EB1 and their derivatives to decrease the ErbB2-dependent cell proliferation. We used the ErbB2-overexpressing human breast cancer cell lines SKBR3 and BT474, as well as two non ErbB2-dependent breast cancer cell lines MCF7 and MDA-MB-231 and normal human endothelial cells (HBMEC) as a control, to discard compounds presenting non-specific toxic effects.
(§2) SKBR3, BT474, MCF-7, MDA-MB-231 and HBMEC cells were treated with the compounds as indicated, and cell proliferation was determined each day during 3 days using an MTT assay. Non treated cells were included as a negative control.
(§3) The ErbB2-overexpressing gastric cancer cell line N87 and MDAMB-231, a non ErbB2-overexpressing breast cancer cell line were treated with 3, 5 or 7 μM of ZU and cell proliferation was determined each day during 3 days using an MTT assay. Non treated cells were included as a negative control.
The ErbB2-overexpressing ovarian cancer cell line SKOV3 and MDAMB-231, a non ErbB2-overexpressing breast cancer cell line were treated with 3, 5 or 7 μM of ZU and cell proliferation was determined each day during 3 days using an MTT assay. Non treated cells were included as a negative control.

N87 [1] = experiment: Soft agar colony formation, N87; conditions: 5 or 10 μM, 6 weeks; tested form: HCl
Protocol: (§4) A bottom layer of 0.8% agarose in DMEM supplemented with 20% SVF and penicillin/streptomycin was added to 24 well plates before seeding 15.10^3 N87 cells/well in a 0.6% agarose top layer. Cells were left untreated or treated with 5 or 10 μM ZU or 5 μM AG1478 (a non-specific ErbB2 kinase inhibitor) as a positive control. Treatments were renewed 3 times a week. After 6 weeks, the number of colonies and their size were quantified using image J software. The colony formation is illustrated for each condition. Data are presented as mean±SEM (One way ANOVA: F(3, 6)=170.9; Dunnett's Post Hoc Test ****p<0.0001).

[2] = tested on: V842I ErbB2-transfected cells; experiment: MTT cell proliferation, V842I ErbB2-transfected HBMEC; conditions: 10 μM, day 3; tested form: HCl
Protocol: (§5) The WT, V777L or V842I ErbB2-transfected cells were treated with 5 or 10 μM of ZU and cell proliferation was determined each day during 3 days using an MTT assay. Non transfected cells were included as a negative control.
(§6) The WT, V777L or V842I ErbB2-transfected cells were treated with 5 or 10 μM of EB1 and cell proliferation was determined each day during 3 days using an MTT assay. Non transfected cells were included as a negative control.

WT ErbB2 = WT ErbB2 (Homo sapiens, UniProt P04626); experiment: Western blot pY1248, WT ErbB2 in transfected HBMECs; conditions: 0, 5, 10 or 20 μM, tested form: HCl
Protocol: (§7) HBMECs cells were transfected with plasmids encoding WT, ΔEBM (a form of ErbB2 carrying mutations in the juxtamembrane domain and unable to bind to the Ezrin FERM domain), V659E or p95 ErbB2 and treated with 0, 5, 10 or 20 μM ZU for 24 h. ErbB2 activation was then analyzed by western blot analysis using a phospho-ErbB2-specific antibody (pY1248) and a tubulin antibody as a loading control. Histograms show optical density quantification.
HBMECs cells were transfected with plasmids encoding WT, V777L or V842I and treated with 0, 5, 10 or 20 μM ZU or EB1 for 48 h. ErbB2 activation was then analyzed by western blot analysis using a phospho-ErbB2-specific antibody (pY1248) and a total ErbB2 antibody. Histograms show optical density quantification.

N87 [3] = experiment: MTT cell proliferation, N87; conditions: 3, 5 and 7 μM, day 3; tested form: HCl
Protocol: as §3

HBMEC = experiment: MTT cell proliferation, HBMEC control cells; assay type: cell-based, human; conditions: tested form: HCl
Protocol: as §1, §2, §5, §6

BT474 = experiment: MTT cell proliferation, BT474; conditions: tested form: HCl
Protocol: as §1, §2
A solution of ZU in cis conformation was mixed to a solution of ZU in trans conformation (1:1) to obtain ZU in a 50/50 cis/trans conformation and their respective effects on ErbB2 activation and ErbB2-dependent cell proliferation were analyzed as previously by dot blot analysis using an anti-phosphotyrosine antibody (clone 4G10) and by MTT assays in the ErbB2-overexpressing breast cancer cell line SKBR3, BT474, or HBMEC as a control.

ΔEBM ErbB2 = experiment: Western blot pY1248, ΔEBM ErbB2 in transfected HBMECs; conditions: 0, 5, 10 or 20 μM, 24 h; tested form: HCl
Protocol: as §7

[4] = tested on: V777L ErbB2-transfected cells; experiment: MTT cell proliferation, V777L ErbB2-transfected HBMEC; conditions: 10 μM, day 3; tested form: HCl
Protocol: as §5, §6

MCF7 = experiment: MTT cell proliferation, MCF7; conditions: 5 μM; tested form: HCl
Protocol: as §1, §2

SKBR3 = experiment: Soft agar colony formation, SKBR3; conditions: 5 or 10 μM, 6 weeks; tested form: HCl
Protocol: as §4, with “25.10^3 SKBR3 or BT474” for “15.10^3 N87”, “ZU or EB1” for “ZU”, “mean±SEM.” for “mean±SEM (One way ANOVA: F(3, 6)=170.9; Dunnett's Post Hoc Test ****p<0.0001).”

ErbB2 = ErbB2 (Homo sapiens, UniProt P04626); experiment: ErbB2 activation in SKOV3 cells, dot blot (4G10); conditions: tested form: HCl
Protocol: The phosphotyrosine content in the ErbB2-overexpressing ovarian cancer cell line SKOV3 was analyzed by dot blot using an anti-phosphotyrosine antibody (clone 4G10). As in these cells, ErbB2 is the main phosphorylated protein, decreased in total phosphotyrosine content mainly reflected inhibition of ErbB2 activity. As a control, the non-specific ErbB2 kinase inhibitor AG1478 was used. Quantifications show the result of two independent experiments.

In the case of `OCCN1CCN(CC/C=C2/c3ccccc3Sc3ccc(Cl)cc32)CC1`, the “effect on MDA-MB-231 proliferation (in words)” value (MDA-MB-231; 5 μM) is reported as “without any effect”, the “effect on MDAMB-231 control cell line proliferation (in words)” value (MDA-MB-231; 3, 5 and 7 μM) is reported as “no effect” and the “inhibition of N87 microcolony formation” value (N87 [1]) is reported as 50%. For the same compound, the “decrease of the proliferation of V842I transfected HBMEC” value [2] was 65%, the “activation of WT ErbB2 (in words)” value (WT ErbB2; 24 h) was “decreased the activation” and the “ErbB2 WT activation (in words)” value (WT ErbB2; 48 h) was “potently decrease”. The “decrease of the proliferation of N87” value (N87 [3]) was 35%, the “effect on HBMEC proliferation (in words)” value (HBMEC; 5 μM) was “without any effect” and the “effect on proliferation of non-transfected HBMECs cells (in words)” value (HBMEC; 10 μM, day 3) was “no effect”. For the same compound, the “reduction of BT474 proliferation” value (BT474; 5 μM, day 2 and 3) was 50%, the “Cell proliferation at d 3 BT474 Max inhibition, %” value (BT474; day 3) was 31.5% and the EC50 (BT474; read-out: Cell proliferation at d 3 BT474 EC50, day 3) was 6.8 µM. For the same compound, the IC50 (BT474; read-out: IC50 BT474 proliferation) was 7 µM, the “activation of ΔEBM ErbB2 mutant (in words)” value (ΔEBM ErbB2) was “without any effect” and the “decrease of the proliferation of V777L transfected HBMEC” value [4] was 35%. For the same compound, the “effect on MCF7 proliferation (in words)” value (MCF7) was “without any effect”, the “anchorage-independent growth of SKBR3 (in words)” value (SKBR3) was “inhibited the anchorage-independent growth” and the “ErbB2 activation in SKOV3 cell line (in words)” value (ErbB2) was “potently decreases ErbB2 activation”.
